Binding of CDR-mutated scFvs to a peptide of the spike HR2 region

Target peptide (SARS-CoV-2 spike, HR2 region): PDVDLGDISGINAS

Parent scFv Ab-14: VH joined to VL by three GGGGS repeats. Changes lie in the light chain CDRs alone.
VH: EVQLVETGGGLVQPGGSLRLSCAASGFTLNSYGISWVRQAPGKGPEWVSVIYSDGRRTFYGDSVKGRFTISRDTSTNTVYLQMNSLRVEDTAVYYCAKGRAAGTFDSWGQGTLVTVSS
VL: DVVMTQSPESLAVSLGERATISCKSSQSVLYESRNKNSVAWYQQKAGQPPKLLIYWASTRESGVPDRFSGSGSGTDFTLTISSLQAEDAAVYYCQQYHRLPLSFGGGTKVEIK

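Phage display of a naive human antibody library on the peptide gave the parent. This is the validation round: designs drawn from the data on random variants, tested in the same kind of assay. Group labels follow the data file (Ctrl: baseline library sampled from a position-specific scoring matrix, with some repeated check sequences; En: ensemble of fine-tuned language models; GP: Gaussian process model; GPLM: also part of the Gaussian process libraries; HC: hill climbing; Gen: genetic algorithm; Gibbs: Gibbs sampling; a sequence that several methods proposed may carry one label only). The scFvs were displayed on barcoded MATa yeast, the peptide on MATalpha yeast. Binding brings cells together so that they mate, and sequencing counts the barcode pairs among the diploids. The ratio of observed to expected reads was calibrated, replicate by replicate, on BCL2-family standards whose Kd was known from biolayer interferometry. There are six technical replicates.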

Variants are written as CDR1, CDR2 and CDR3 of the light chain (limits as in the source). Parent: KSSQSVLYESRNKNSVA, WASTRES, QQYHRLPLS. Kd is apparent (estimated from mating counts) and averaged on the log scale over replicates with a signal. Smaller is tighter. "no signal" means that the variant was in the library but no mating with the target was seen in any replicate; the authors take this as a sign of poor binding, and no number exists. Nonspecific signal, from three strains lacking the peptide, appeared in 4% of pairings of all light chain designs, centred on 430 nM (5% of these signals below 38 nM); values are not corrected for it. A sequence measured in both rounds can read differently, since the two assays cover different ranges. Of ten entries with the parent sequence, four were seen in most replicates (averages 2.2 nM to 240 nM), three in one and three in none, so single entries are noisy. The authors' rule: three or more of the six replicates give a measured affinity, fewer mean a poor binder.

CDR-L1,CDR-L2,CDR-L3,group,Kd,detected
QLLMATMQGTYNRNSVA,HAETRED,QSYHRLPLA,En_HC,100 nM,2/6
KLSQSVLYGQRNKNSVA,NASTRMS,QQYHRLPLY,GP_Gibbs,710 pM,6/6
KISFQYRYEQLSKNNIA,EVVTRLK,QQYHRLPLS,En_HC,51 nM,5/6
KMSQSVLYESRNNNSVA,DASTRES,QQYYRLPLS,Ctrl,3.9 nM,6/6
NLGGEDANDNRGMMAVA,DVNTVGE,QHYNRLPLS,En_Gibbs,57 nM,6/6
KSSWSYLYESRNENSVA,EASTREQ,QQYHRLPLS,GP_HC,1.6 nM,6/6
KVSEFMRGLMQRKDSIA,DNETRNS,QQYDRLPLS,En_Gen,130 nM,6/6
TLMQVAGYEMNAHNSIA,DLRTRES,QQYHRLPLS,En_HC,4.1 nM,6/6
KVQQSVLYESRNKNSVA,QASTRES,QQYHRLPLS,GP_Gen,800 pM,6/6
KSSPSVLYESHNKNSVA,QASTRMS,QQYHRLPLS,GP_HC,5.9 nM,6/6
KSSQSVLYESRNKNSVA,WASTRES,QRYHRLPLS,Ctrl,230 nM,3/6
KVSQSVQYESRNKNSVA,NASTRES,QQYHRLPLS,GP_Gen,4.0 nM,6/6
HLSFPWQSGHDSTHAVA,NDSTLMT,QSYNRLPLS,En_Gibbs,64 nM,6/6
KVSQSKLYESRNKNSVA,NASQRES,QQYHRLPLS,GP_Gen,850 pM,6/6
KSQQSELYESRNKNSVA,NASQRES,QQYHRLPLS,GP_Gen,1.2 nM,6/6
MFSQLFMTGSRNYNSVA,QASTRES,QQYHRLPLI,En_HC,13 nM,6/6
KSSQSVLYESRNQNSVA,WASTRES,QQYHRLPLS,Ctrl,210 nM,6/6
KLSMGHDYESRNKNSVA,QASTREW,QQYHRLPLS,GP_Gibbs,53 nM,6/6
KLRQSTHIESFNKNNVA,EMTTREE,QSYDRLPLS,En_HC,120 nM,5/6
KLSGLMSSSKFQKDNVA,ENNTREK,QQYERLPLS,En_Gen,39 nM,3/6
KSSMSVLYESGNKNSVA,WASLRES,QQYHRLPLS,Ctrl,51 nM,2/6
KSSQSVSYESTNKNSVA,SASTRIS,QQYHRNPLS,Ctrl,120 nM,3/6
KFSQSVLYESRMKNSVA,NASTRES,QQYHRLPLS,GP_Gen,1.2 nM,6/6
HISMMVGTKGYNKNAVA,NAETRED,QQYHRLPLS,En_HC,540 pM,6/6
KLVQQNLYESRNKNNVA,EASTREQ,QQYHRLPLS,GP_Gibbs,1.0 nM,6/6
KISMLYNYASVNKNSIA,EMTTRES,QHYHRLPLS,En_HC,890 pM,6/6
KSSQSVLYESRWHGSIA,GASTLVS,QQYHRLPLS,Ctrl,33 nM,6/6
KFSQSVLYESRTKNSVA,NAVTREE,QQYHRLPLS,GP_HC,710 pM,6/6
MIAETVGYQSRNKNSVA,DNSTRED,QCYDRLPLS,En_HC,210 nM,1/6
KISQMTRVGMTHSNSIA,EEVTRAK,QQYHRLPLS,En_Gen,8.7 nM,6/6
KSPQSTLYESRNKNSVA,HASTRED,QSYHRLPLS,GP_HC,1.8 nM,6/6
TLMYAGEWEGENKKSVA,NAIIKNE,QQYVRLPLA,En_Gibbs,40 nM,5/6
KVSQSDLYESRNKNSVA,EASTREQ,QQYHRLPLS,GP_Gen,570 pM,6/6
KLSQSVPYESRNKNSVA,EASTREV,QQYHRLPLS,GP_Gen,980 pM,6/6
KLSQSMGYEERNKNSVA,NASQRMS,QQYHRLPLS,GP_Gibbs,540 pM,6/6
SFSQSVLYESRDKNSVA,NASTRES,QQYHRLPLS,GP_HC,1.1 nM,6/6
NFSQMVLTGQTLRNSVA,HASTRFE,QQYHRLPLI,En_HC,22 nM,6/6
KLDGSDQYESRNKNSVA,DASTRES,QQYHRLPLS,GP_Gibbs,950 pM,6/6
LVDQSNLYEQRNKNSVA,SASLRES,QQYHRLPLS,GP_Gibbs,2.3 nM,6/6

Second part, the sequence after the result:

Kd,detected,CDR-L1,CDR-L2,CDR-L3,group
1.5 nM,6/6,KVSQSVLFESRNKNSVA,DASTRES,QQYHRLPLS,GPLM_HC
1.2 nM,6/6,KLMQSVLYESRNKNSVA,NASQRLS,QQYHRLPLS,GP_Gen
1.8 nM,6/6,HIDILNRGETLKKDDIA,NADHREQ,QQYFHLPLA,En_Gibbs
no signal,0/6,KSSQSVLYESFNKNSVA,WASTRED,QQYHRLPLS,Ctrl
no signal,0/6,KVSEFMRGLMMRKDSIA,DNNTRFN,QQYDRLPLS,En_Gen
140 nM,4/6,HITMGMYVSGRHHSSIA,QAETRAK,QQYDRLPLI,En_Gen
9.5 nM,6/6,KLSMSYREESVNKNSIA,ELVTRMS,QQYHRLPLS,En_HC
27 nM,6/6,KLYMSTGYESRAKDSIA,DNSTRGR,QQYHRLPLS,En_HC
34 nM,6/6,HFSQETMEFMSQNKAIA,EVTTTML,QQYARLPFI,En_Gibbs
2.7 nM,6/6,HMKDEPGFGPQTYSSVA,HAEIREP,QQYYRLPLM,En_Gibbs
6.2 nM,6/6,KISQMSTIESITHNSVA,QTSTREK,QQYDRLPLS,En_HC
1.9 nM,6/6,ILSQSVLYESRNKNSVA,NASTRES,QQYHRLPLS,GP_Gen
680 pM,6/6,TISDLMGHMSRAHNNVA,DMDTRGE,QQYNRLPLS,En_Gen
330 nM,3/6,KLNQDPVLKTNINNSVA,EHSEVFQ,QQYAHLPLQ,En_Gibbs
1.2 nM,6/6,KSSQSYLYESMNKNSVA,EASTRES,QQYHRLPLS,GP_HC
49 nM,6/6,MISDMGLHDSRIHNSVA,NNSTREA,QQYDRLPLS,En_HC
190 nM,1/6,KSSQSVLYESQYKNSVA,WATTRES,FQYHRLPLS,Ctrl
320 pM,6/6,KSSWSDLMESRNKNSVA,DASTRSS,QQYHRLPLS,GP_HC
9.0 nM,5/6,KSSQSVLYESRNKNSVA,EASTREP,QQYHTLLLS,Ctrl
1.5 nM,6/6,KSSQSVLYESRNYNSVA,FGSTRAS,QQYHRLPLS,Ctrl
1.2 nM,6/6,NFSMSDQYQMQEQGNIA,QTEQKAN,QQYFRLPLT,En_Gibbs
26 nM,6/6,KIRVQQYSQSEMESNIA,GESVRHQ,QQYFHLPLS,En_Gibbs
810 pM,6/6,KLVQFMNRGTHAKSNIA,DAQNRTD,QQYARLPLA,En_Gen
1.5 nM,6/6,KFEQSHGYESRNKNSVA,NASTRES,QQYWRLPLS,GP_Gibbs
2.5 nM,6/6,KLSQSMLYESRNKNSVA,HASTRLS,QQYHRLPLS,GP_Gen
110 nM,3/6,NLRGVEFESAMMGNAVA,DMSAVMA,QQYFRLPLH,En_Gibbs
550 nM,3/6,KSSQSVLYESRNKASVA,WASTRES,QQYHRLPLS,Ctrl
1.4 nM,6/6,KLSQSELYESRMKNSVA,NASTRMS,QQYHRLPLS,GP_Gen
4.3 nM,6/6,KIHQSVLYEDRNINSVA,SASQRYS,QAYHRLPLS,GP_Gibbs
6.1 nM,6/6,KLSQSALYESRNKNSVA,EASTRES,QQYHRLPLS,GP_Gen
710 pM,6/6,KLPQSYLYESRNKNSVA,NASTREV,QQYHRLPLS,GP_Gen
5.4 nM,6/6,ILMQPYKEPGAAKNNIA,DGSIRLD,QQYHRLPLV,En_Gibbs
3.6 nM,6/6,KSSQSVLYEQRNKNSVA,EASTRES,QQYHRLPLS,Ctrl
5.1 nM,6/6,KLSQSMEYESRNVNSVA,YASTREL,QQYHRLPLS,GP_Gibbs
720 pM,6/6,KLSFSCLYESANKNSVA,NASTRLS,QQYHRLPLS,GP_Gibbs
7.4 nM,6/6,TLYGLSVSMSKNKNNVA,EMTTREK,QQYDRLPLV,En_Gen
1.4 nM,6/6,KLYQSELYESRMKNSVA,NASTRES,QQYHRLPLS,GP_Gen
1.0 nM,6/6,KLSGSVEMLSRNVNNVA,QASTREL,QAYHRLPLS,GP_Gibbs
15 nM,6/6,HLGNEGDNQGNAKKSVA,DQNTVQL,QHYSRLPLT,En_Gibbs
9.5 nM,6/6,KLTHPTDLWLNHASSIA,DANISVE,QQYYWLPLT,En_Gibbs

The last 10 entries again:

CDR-L1,CDR-L2,CDR-L3,group,Kd,detected
KLPQSYLYESRNKNSVA,NASTREV,QQYHRLPLS,GP_Gen,710 pM,6/6
ILMQPYKEPGAAKNNIA,DGSIRLD,QQYHRLPLV,En_Gibbs,5.4 nM,6/6
KSSQSVLYEQRNKNSVA,EASTRES,QQYHRLPLS,Ctrl,3.6 nM,6/6
KLSQSMEYESRNVNSVA,YASTREL,QQYHRLPLS,GP_Gibbs,5.1 nM,6/6
KLSFSCLYESANKNSVA,NASTRLS,QQYHRLPLS,GP_Gibbs,720 pM,6/6
TLYGLSVSMSKNKNNVA,EMTTREK,QQYDRLPLV,En_Gen,7.4 nM,6/6
KLYQSELYESRMKNSVA,NASTRES,QQYHRLPLS,GP_Gen,1.4 nM,6/6
KLSGSVEMLSRNVNNVA,QASTREL,QAYHRLPLS,GP_Gibbs,1.0 nM,6/6
HLGNEGDNQGNAKKSVA,DQNTVQL,QHYSRLPLT,En_Gibbs,15 nM,6/6
KLTHPTDLWLNHASSIA,DANISVE,QQYYWLPLT,En_Gibbs,9.5 nM,6/6

The measurements come from Li et al. 2023 (doi:10.1038/s41467-023-39022-2) through the FLAb antibody collection.